# Ab-14 heavy chain CDR variants: yeast mating affinities

Values reported by Engelhart et al. 2022, doi:10.1038/s41597-022-01779-4 (FLAb copy).

The target is the same throughout: PDVDLGDISGINAS, from the HR2 region of SARS-CoV-2 spike.

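The starting antibody came from a phage panning campaign against this peptide. In library AAYL49, one, two or three CDR residues were substituted; doubles and triples were drawn at random. The scFvs were displayed on barcoded MATa yeast, the peptide on MATalpha yeast. Binding brings cells together so that they mate, and sequencing counts the barcode pairs among the diploids. Read counts were normalised to the haploid input and turned into Kd by a linear fit to BCL2-family pairs of known affinity, for each replicate. Each pool was mated in three replicate cultures.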

The variants keep the light chain, the linker and the frameworks of Ab-14 (scFv order VH, a (GGGGS)3 linker, VL).
VH: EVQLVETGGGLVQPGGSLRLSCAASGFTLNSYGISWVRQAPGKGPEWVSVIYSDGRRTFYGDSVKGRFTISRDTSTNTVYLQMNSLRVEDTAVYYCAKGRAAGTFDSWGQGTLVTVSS
VL: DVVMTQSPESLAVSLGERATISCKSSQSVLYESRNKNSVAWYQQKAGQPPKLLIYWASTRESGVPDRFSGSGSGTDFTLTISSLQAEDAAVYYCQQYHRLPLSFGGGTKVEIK

Positions count from residue 1 of the parent VH; N30Y puts Y in place of N. Values are log10 of the apparent Kd in nM; lower means stronger binding. Averages over replicates are reported, and they cover detected replicates only. An entry "ND" has no value in the source: the pair was not observed among the diploids in that replicate. This suggests poor binding but is not conclusive. As a blank, each scFv also met three strains without target: over library AAYL49, 15% of these pairings were detected, typically at 4.06 and seldom below 2.83.

With N30Y+D54C+K65D the result was ND, ND, 4.14.
With T58Q+R100Q+A101Y the result was 0.93, 1.04, 0.94 (mean 0.97).
With I34R+T58F+F105Q the result was ND, ND, ND.
With D54G+D106L+S107V the result was ND, ND, ND.
With R100E+A101R+A102E the result was ND, 4.10, 3.88 (mean 3.99).
With Y32T+T58M the result was 4.02, ND, ND.
With Y32P+V50W+A102G the result was 4.47, ND, ND.
With T28E+S53T+G99P the result was 1.75, ND, 3.15 (mean 2.45).
With Y32D+S35I+D54V the result was ND, ND, ND.
With T28Q+R57A+G61W the result was ND, 4.80, 3.86 (mean 4.33).
With S31F+G61R+S63Q the result was 3.28, 2.40, 3.36 (mean 3.01).
With I51N+G61Q+R100W the result was ND, 3.34, ND.
With S53Y+T58Y+V64H the result was ND, 3.06, ND.
With R56P+Y60P+D62N the result was ND, ND, ND.
With G26K+G33F+F59P the result was ND, 4.58, ND.
With S31V+R100F the result was 1.62, 1.52, 1.59 (mean 1.58).
With G33K+S35H the result was ND, ND, ND.
With L29R+S31T+D62Y the result was ND, ND, ND.
With F27K+D54A+A102K the result was 4.40, 4.11, ND (mean 4.25).
With Y32G+F105H the result was ND, 5.00, ND.
With I34C+S63G the result was ND, ND, ND.
With F27N+N30K+S35K the result was ND, ND, ND.
With F27K+G33H+G103W the result was 1.65, 1.63, 1.67 (mean 1.65).
With L29M+A101H+T104C the result was ND, ND, 3.55.
With F27W+D54M+V64L the result was ND, ND, ND.
With S31R+G55V+D62K the result was ND, ND, ND.
With L29Q+F59V+F105P the result was ND, ND, ND.
With S31K+Y52C+S53W the result was ND, ND, ND.
With D62E+A101F+F105M the result was 1.24, 1.44, 1.37 (mean 1.35).
With I51K+S53Y+K65F the result was 4.15, ND, ND.
With G99M+G103I the result was ND, ND, ND.
With L29I+D62T+V64N the result was 4.62, 4.87, 4.69 (mean 4.73).
With S53L+R57L+G61C the result was ND, ND, ND.
With F27P+T58L+A101G the result was ND, ND, ND.
With L29M+S63A+G99Q the result was ND, ND, ND.
With D62V+A102Y+F105R the result was ND, 5.00, ND.
With L29F+T104G+F105H the result was ND, ND, ND.
With G26C+S31R+T104Y the result was ND, ND, ND.
With F27Y+Y32I+T104H the result was ND, ND, ND.
With N30Y+S53H+T58P the result was ND, ND, ND.
With S31N+I34S+Y60S the result was ND, 4.87, ND.
With S35Q+G55P+K65Y the result was ND, ND, ND.
With G26P+D62H+G99I the result was ND, ND, ND.
With F59K+D106S the result was 2.56, 2.88, 3.03 (mean 2.83).
With Y32N+Y60R+R100W the result was 4.87, 3.70, 5.28 (mean 4.62).
With Y32W+G33V+R57W the result was ND, ND, ND.
With F27K+I51W+A101M the result was ND, ND, 4.78.
With I34P+D62V+R100T the result was ND, ND, ND.
With L29Y+I34A+I51M the result was ND, ND, ND.

The opening 5 entries, copied out:

changes	replicates, log10 nM	log10 Kd (nM), mean
N30Y+D54C+K65D	ND, ND, 4.14	4.14
T58Q+R100Q+A101Y	0.93, 1.04, 0.94	0.97
I34R+T58F+F105Q	ND, ND, ND	ND
D54G+D106L+S107V	ND, ND, ND	ND
R100E+A101R+A102E	ND, 4.10, 3.88	3.99